According to patent US20070275091A1, “Compositions And Methods For Improved Mucus Function” (priority 2004, published 2007):

Assay: Viscoelasticity and spinnability of cystic fibrosis respiratory mucus with dextran
Type: physicochemical, human
Conditions: FIG. 2
Procedure: The magnetic microrheometer technique is used to measure the viscosity and elasticity of mucus (19). A 100 μm steel ball is positioned in a 5-10 mg sample of mucus, and the motion of this sphere under the influence of an electromagnet is used to determine the rheological properties of the mucus. The image of the steel ball is projected via a microscope onto a pair of photocells, whose output is amplified and transmitted to a digital storage oscilloscope. By plotting the displacement of the ball against the magnetic driving force, the viscoelastic properties of the mucus can be ascertained. Two derivative parameters—mucociliary clearability index (MCI) and cough clearability index (CCl)—are computed from in vitro relationships (King M. Role of mucus viscoelasticity in cough clearance. Biorheology 1987; 24: 589-597).
Low molecular weight dextran is a potential mucolytic treatment for cystic fibrosis lung disease. In pre-clinical testing, it promoted clearance by both mucociliary and airflow mechanisms, and the drug has passed a Phase 1 safety trial in normal subjects. A Phase 2 clinical trial of aerosolized low molecular weight dextran in cystic fibrosis patients has been completed, and further trials are planned. […]

Question: Which “elasticity relative to viscosity (spinnability relative to log G*)” value does the source give for HMW dextran [XL “D”] here?
Answer: tends to raise elasticity relative to viscosity
